{"source": "patent US5663186A", "about": "“Treatment of atherosclerosis with angiotensin II receptor blocking imidazoles” (Merck & Co., Inc., priority 1995, dated 1997)", "biological_target": "Angiotensin II Receptor", "assay": "Angiotensin II receptor binding, rat adrenal cortical microsomes (3H-AII displacement)", "conditions": "2 nM 3H-AII, 1 hour room temperature"}
{"smiles": "CCCCc1nc(Cl)c(C(=O)O)n1Cc1ccc(-c2ccccc2-c2nnn[nH]2)cc1", "note": "[Compound 2, 2-n-butyl-4-chloro-1-[(2'-(tetrazol-5-yl)-1,1'-biphenyl-4-yl)-methyl]-1H-imidazole-5-carboxylic acid]", "values": [{"measurement": "IC50", "result": 11, "unit": "nM"}]}
